Measurements as given in patent US12357680B2, “Inhibition of histone methyl transferases to treat cancer” (Albert-Ludwigs-Universitat Freiburg, priority 2018, dated 2025).

Chains of the proteins cited; added tags and fusions are not shown.
UniProt O96028, whole entry T1150A: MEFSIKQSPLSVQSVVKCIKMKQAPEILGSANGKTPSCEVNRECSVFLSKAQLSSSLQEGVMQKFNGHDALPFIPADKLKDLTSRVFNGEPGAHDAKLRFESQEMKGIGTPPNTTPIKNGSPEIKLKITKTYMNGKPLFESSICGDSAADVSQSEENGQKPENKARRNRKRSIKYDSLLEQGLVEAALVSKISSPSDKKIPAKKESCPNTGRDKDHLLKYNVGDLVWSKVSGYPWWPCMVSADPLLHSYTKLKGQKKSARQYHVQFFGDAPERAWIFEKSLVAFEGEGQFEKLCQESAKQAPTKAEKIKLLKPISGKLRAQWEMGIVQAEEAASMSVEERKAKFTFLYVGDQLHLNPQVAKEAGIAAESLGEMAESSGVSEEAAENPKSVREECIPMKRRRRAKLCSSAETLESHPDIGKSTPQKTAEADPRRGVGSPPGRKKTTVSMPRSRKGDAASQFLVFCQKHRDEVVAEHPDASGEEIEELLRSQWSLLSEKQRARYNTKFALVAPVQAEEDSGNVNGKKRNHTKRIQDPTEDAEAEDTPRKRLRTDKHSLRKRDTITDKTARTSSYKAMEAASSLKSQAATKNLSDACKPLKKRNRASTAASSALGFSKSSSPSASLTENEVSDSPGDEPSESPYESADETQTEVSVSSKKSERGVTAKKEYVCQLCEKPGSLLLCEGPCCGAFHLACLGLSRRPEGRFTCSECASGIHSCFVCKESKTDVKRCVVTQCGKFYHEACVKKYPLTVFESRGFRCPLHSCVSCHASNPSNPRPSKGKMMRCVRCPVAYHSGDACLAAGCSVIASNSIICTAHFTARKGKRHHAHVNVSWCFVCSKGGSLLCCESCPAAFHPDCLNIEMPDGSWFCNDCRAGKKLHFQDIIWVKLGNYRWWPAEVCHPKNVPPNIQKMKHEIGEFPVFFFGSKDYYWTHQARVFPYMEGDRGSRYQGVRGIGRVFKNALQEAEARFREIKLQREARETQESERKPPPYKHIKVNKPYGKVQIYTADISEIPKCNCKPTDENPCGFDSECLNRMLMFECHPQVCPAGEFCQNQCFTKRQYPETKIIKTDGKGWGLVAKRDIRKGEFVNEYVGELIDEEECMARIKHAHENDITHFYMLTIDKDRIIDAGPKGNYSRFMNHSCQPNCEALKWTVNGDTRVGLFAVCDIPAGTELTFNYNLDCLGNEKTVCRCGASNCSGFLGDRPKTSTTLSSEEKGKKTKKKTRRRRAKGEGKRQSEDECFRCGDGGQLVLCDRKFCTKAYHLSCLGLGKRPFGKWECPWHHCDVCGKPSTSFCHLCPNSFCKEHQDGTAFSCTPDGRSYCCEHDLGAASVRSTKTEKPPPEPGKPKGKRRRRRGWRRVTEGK
UniProt O96028, whole entry E1099K: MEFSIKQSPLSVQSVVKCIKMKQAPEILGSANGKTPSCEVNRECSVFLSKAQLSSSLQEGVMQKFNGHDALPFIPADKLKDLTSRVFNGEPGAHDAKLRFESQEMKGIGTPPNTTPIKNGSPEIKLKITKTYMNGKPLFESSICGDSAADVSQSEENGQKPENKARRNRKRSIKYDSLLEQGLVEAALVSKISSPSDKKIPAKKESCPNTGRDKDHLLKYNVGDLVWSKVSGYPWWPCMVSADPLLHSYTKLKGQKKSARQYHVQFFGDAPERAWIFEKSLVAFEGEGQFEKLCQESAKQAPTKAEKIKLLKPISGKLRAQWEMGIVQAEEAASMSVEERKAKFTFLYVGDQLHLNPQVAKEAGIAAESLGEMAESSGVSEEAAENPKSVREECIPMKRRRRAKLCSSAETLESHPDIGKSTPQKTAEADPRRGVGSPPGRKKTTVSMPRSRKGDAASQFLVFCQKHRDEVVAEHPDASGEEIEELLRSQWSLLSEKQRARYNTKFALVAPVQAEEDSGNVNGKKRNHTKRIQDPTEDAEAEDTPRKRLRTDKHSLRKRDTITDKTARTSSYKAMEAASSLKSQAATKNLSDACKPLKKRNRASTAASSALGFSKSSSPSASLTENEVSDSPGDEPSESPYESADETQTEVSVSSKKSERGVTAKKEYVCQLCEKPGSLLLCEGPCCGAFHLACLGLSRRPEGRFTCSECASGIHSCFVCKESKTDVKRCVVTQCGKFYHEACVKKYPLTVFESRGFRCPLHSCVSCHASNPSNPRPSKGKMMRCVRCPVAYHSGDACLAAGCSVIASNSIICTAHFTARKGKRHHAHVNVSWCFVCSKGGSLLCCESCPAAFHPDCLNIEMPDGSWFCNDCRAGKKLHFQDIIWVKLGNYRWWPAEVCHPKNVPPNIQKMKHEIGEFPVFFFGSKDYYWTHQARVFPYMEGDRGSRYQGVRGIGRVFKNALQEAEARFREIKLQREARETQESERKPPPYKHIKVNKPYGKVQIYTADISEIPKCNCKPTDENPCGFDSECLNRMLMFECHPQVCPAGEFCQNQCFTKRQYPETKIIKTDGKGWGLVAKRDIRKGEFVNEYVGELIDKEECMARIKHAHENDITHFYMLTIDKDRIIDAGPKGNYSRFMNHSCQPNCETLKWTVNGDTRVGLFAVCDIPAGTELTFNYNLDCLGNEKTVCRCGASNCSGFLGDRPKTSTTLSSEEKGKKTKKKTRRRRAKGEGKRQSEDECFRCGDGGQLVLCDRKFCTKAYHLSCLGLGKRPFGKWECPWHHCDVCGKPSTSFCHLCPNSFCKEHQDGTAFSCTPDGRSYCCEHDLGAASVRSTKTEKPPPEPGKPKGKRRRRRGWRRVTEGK

What was measured:
Experiment in all cases: Methyltransferase panel, 10-dose IC50 mode
Format in all cases: biochemical
NSD2 (T1150A) = NSD2 (T1150A) (Homo sapiens (Human), UniProt O96028, T1150A)
NSD2 (E1099K) = NSD2 (E1099K) (Homo sapiens (Human), UniProt O96028, E1099K)
NSD2 = NSD2 (Homo sapiens (Human), UniProt O96028)

## Nc1ncnc2c1ncn2[C@@H]1O[C@H](CSCC[C@H](N)C(=O)O)[C@@H](O)[C@H]1O [SAH, S-(5′-Adenosyl)-L-homocysteine]
NSD2 (T1150A)
  IC50: 1440 nM
NSD2 (E1099K)
  IC50: 1570 nM
NSD2
  IC50: 3050 nM
